Earlier results, collected in patent US20080113011A1, “Compositions and methods for enhanced mucosal delivery of interferon beta” (Nastech Pharmaceutical Company Inc., priority 2002, published 2008).

Legend:
[1] = rabbits
[2] = after an intramuscular or subcutaneous dose

For “IFN-β: interferon-β, glycoprotein of 20 kDa, 166 amino acids”, the “absorption after intranasal administration, in words” value ([1]; solution or powder formulations without surfactants) is listed as “not absorbed”, the “Total absorption following nasal administration, of that following intravenous administration” value ([1]; with sodium glycocholate) is listed as 2.2% and the “time biological markers remain elevated” value [2] is listed as 4 days. For the same substance, the “time of peak of biological markers (2',5'-OAS, neopterin, β2-microglobulin)” value [2] was roughly 48 hours and the elimination half-life (in vivo) was “around 10 hours”.
